The record followed here is US4952607A, “Copper complex for treating cancer” (priority 1986, dated 1990).

The series relates to Ehrlich carcinoma cells. As to conditions: dose levels used.

As to `CC(C)c1cc(C(=O)[O-])c(O)c(C(C)C)c1.CC(C)c1cc(C(=O)[O-])c(O)c(C(C)C)c1.[Cu+2]` [CuDIPS, Cu(II) (3,5-diisopropylsalicylate)2], the “toxicity to the host” value is given as “non-toxic to the host at the dose levels used”.
